# Measurements reported in PMC4235474 (Clinical Pharmacology : Advances and Applications, 2014).
# Chains of the proteins cited; added tags and fusions are not shown. Residues count along the entry.
# UniProt P00743, 41-180 partner limits assumed: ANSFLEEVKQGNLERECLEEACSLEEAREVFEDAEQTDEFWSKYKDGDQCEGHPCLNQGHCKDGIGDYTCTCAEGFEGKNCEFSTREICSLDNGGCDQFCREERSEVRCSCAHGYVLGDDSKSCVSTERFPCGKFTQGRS
# UniProt P00743, 234-492 limits assumed: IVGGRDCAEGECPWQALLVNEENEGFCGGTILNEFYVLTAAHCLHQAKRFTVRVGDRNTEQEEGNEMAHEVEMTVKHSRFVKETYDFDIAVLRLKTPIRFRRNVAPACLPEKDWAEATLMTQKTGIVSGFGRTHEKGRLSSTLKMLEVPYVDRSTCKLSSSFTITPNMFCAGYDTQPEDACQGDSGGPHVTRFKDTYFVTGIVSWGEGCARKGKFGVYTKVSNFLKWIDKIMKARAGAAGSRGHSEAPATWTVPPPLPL
# Molecular target: factor Xa (Bos taurus, UniProt P00743)
# Assay: Steady-state plasma anti-factor Xa activity
# Assay type: in vivo, healthy subjects (human)
# Conditions: for AXA AUC(0–24) G mean (CV): 0 to 24 hours after morning dose, day 4, rivaroxaban 10 mg QD, apixaban 2.5 mg BID, N=14
smiles,measurement,setting,value
"COc1ccc(-n2nc(C(N)=O)c3c2C(=O)N(c2ccc(N4CCCCC4=O)cc2)CC3)cc1 [Apixaban, apixaban]",AXA AUC(0–24) G mean (CV),,13.3 (22) IU · h/mL
same,AXA AUC(0–24) G mean (CV),listed as apixaban,13.3 IU · h/mL
same,AXA Peak:trough G mean (CV),"day 4 steady state, rivaroxaban 10 mg QD (n=13), apixaban 2.5 mg BID (N=14)",4.7 (19.5)
